Experimental data published in patent US20180362585A1 (Bicycle, published 2018).

The chains behind the UniProt entries cited, without tags or fusion partners. Residues count along the entry.
UniProt P03952, 20-638 limits assumed: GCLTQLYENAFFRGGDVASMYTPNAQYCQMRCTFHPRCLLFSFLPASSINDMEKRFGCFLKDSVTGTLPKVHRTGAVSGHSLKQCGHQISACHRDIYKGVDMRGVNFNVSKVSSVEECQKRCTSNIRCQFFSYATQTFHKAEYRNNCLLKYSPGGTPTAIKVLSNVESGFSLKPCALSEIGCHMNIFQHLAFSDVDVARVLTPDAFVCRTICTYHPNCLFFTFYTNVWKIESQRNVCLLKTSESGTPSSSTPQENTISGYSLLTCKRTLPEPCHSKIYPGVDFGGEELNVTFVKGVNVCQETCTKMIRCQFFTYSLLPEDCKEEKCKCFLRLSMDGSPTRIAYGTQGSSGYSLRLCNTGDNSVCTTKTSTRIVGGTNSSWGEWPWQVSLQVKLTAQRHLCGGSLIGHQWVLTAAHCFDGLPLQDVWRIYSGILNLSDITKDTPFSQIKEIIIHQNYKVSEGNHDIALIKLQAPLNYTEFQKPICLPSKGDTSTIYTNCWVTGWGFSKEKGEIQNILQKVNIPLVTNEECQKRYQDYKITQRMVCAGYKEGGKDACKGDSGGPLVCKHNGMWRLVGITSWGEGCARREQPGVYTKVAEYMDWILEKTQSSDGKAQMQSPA
UniProt P14272, 391-638 limits assumed: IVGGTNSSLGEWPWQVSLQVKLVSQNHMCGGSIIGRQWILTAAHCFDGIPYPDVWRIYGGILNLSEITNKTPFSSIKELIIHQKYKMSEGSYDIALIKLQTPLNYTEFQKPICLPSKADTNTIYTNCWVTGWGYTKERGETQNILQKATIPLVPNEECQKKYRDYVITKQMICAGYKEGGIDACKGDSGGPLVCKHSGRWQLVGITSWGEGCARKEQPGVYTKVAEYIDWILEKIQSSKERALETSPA

B1: 1E6 (peptide)
peptide: ACAWPARCLTTSLCG
modifications: 3 Cys on TMB
B2: 06-34 (peptide)
peptide: ACRWPARCVHQDLCA
modifications: 3 Cys on TMB
B3: 06-143 (peptide)
peptide: ACFPSHDCDGRRMCA
modifications: 3 Cys on TMB
B4: 06-56 (peptide)
peptide: ACGGPQNCRTWTTCA
modifications: 3 Cys on TMB

How the values were obtained:
human plasma Kallikrein = target: T1, human plasma Kallikrein (human, UniProt P03952 20-638); experiment: enzyme inhibition
T1 construct: also called hPK; human PK
Experimental: (§1) Functional enzyme assays were conducted in 10 mM Tris HCl, 150 mM NaCl, 10 mM MgCl2, 1 mM CaCl₂) and 1 mg/mL BSA (all Sigma UK) pH7.4 at 25° C. in solid black 96 well plates. […] Release of AMC was measured using a Pherastar FS (BMG Labtech), excitation 360 nm, emission 460 nm. The rate of the linear phase of the reaction, typically 5 to 45 minutes, was calculated in MARS data analysis software (BMG labtech). The rate was then used to calculate the IC50 and Ki in Prism (GraphPad).

rat plasma Kallikrein = target: T2, rat plasma Kallikrein (rat, UniProt P14272 391-638, limits assumed); experiment: enzyme inhibition
T2 construct: domain: catalytic domain; also called rPK; rat PK
Experimental: as §1

| Binder | Ki (human plasma Kallikrein) [pM] | IC50 (human plasma Kallikrein) [pM] | IC50 (rat plasma Kallikrein) [pM] |
| --- | --- | --- | --- |
| B1 | 160 | – | – |
| B2 | 128 | 190 | 7380 |
| B3 | 1270 | – | – |
| B4 | 2100 | – | – |
